# Results: patent publication US9796753B2, “N-substituted indenoisoquinolines and syntheses thereof” (Purdue Research Foundation, priority 2005, dated 2017)
# Molecular target: T1, topoisomerase I (Homo sapiens, UniProt P11387)
# T1 sequence (P11387 1-765): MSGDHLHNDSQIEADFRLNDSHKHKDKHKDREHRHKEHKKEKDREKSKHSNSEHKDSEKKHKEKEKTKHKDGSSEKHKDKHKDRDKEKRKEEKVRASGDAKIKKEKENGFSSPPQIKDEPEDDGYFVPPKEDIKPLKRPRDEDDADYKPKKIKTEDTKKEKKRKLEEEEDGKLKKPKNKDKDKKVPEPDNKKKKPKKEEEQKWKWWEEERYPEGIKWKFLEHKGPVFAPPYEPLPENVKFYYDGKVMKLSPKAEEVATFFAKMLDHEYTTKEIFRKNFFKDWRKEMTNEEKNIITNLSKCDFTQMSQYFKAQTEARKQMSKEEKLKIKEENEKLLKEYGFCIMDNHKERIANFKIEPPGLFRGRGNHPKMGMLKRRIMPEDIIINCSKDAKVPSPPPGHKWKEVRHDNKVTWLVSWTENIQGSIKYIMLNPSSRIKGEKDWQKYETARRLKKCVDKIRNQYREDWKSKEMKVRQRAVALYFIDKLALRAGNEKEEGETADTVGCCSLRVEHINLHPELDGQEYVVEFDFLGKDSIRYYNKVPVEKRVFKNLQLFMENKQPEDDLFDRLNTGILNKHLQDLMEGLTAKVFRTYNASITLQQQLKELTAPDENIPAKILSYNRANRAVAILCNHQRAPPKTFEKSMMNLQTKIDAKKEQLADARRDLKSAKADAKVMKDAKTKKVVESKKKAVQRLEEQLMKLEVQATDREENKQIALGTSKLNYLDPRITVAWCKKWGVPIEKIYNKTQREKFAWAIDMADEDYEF
# Assay: Topoisomerase I-mediated DNA cleavage reactions (A), 3'-end-labeled 161 bp plasmid DNA, semiquantitative
# Settings: tested at concentrations ranging up to 10 μM; semi-quantitative
row,Compound,Top 1 Cleavage
1,"O=C1c2ccccc2-c2c1c1ccccc1c(=O)n2CCNCCn1c2c(c3ccccc3c1=O)C(=O)c1ccccc1-2 [Compound 12a, Bis{(5,6-dihydro-5,11-diketo-11H-indeno[1,2-c]isoquinoline)-6-ethyl}amine]",+
2,"O=C1c2ccccc2-c2c1c1ccccc1c(=O)n2CCCNCCCn1c2c(c3ccccc3c1=O)C(=O)c1ccccc1-2 [Compound 12c, Bis{(5,6-dihydro-5,11-diketo-11H-indeno[1,2-c]isoquinoline)-6-propyl}amine]",+
3,"CN(CCCn1c2c(c3ccccc3c1=O)C(=O)c1ccccc1-2)CCCn1c2c(c3ccccc3c1=O)C(=O)c1ccccc1-2 [Compound 12d, Bis{(5,6-dihydro-5,11-diketo-11H-indeno[1,2-c]isoquinoline)-6-propyl}methylamine]",++
4,"CC(C)(C)OC(=O)N(CCCN(CCn1c2c(c3ccccc3c1=O)C(=O)c1ccccc1-2)C(=O)OC(C)(C)C)CCn1c2c(c3ccccc3c1=O)C(=O)c1ccccc1-2 [Compound 13a, Bis-1,3-{(5,6-dihydro-5,11-diketo-11H-indeno[1,2-c]isoquinoline)-(6-ethyl-tert-BOCamino)}propane]",0
5,"CC(C)(C)OC(=O)N(CCCn1c2c(c3ccccc3c1=O)C(=O)c1ccccc1-2)CCN(CCCn1c2c(c3ccccc3c1=O)C(=O)c1ccccc1-2)C(=O)OC(C)(C)C [Compound 13b, Bis-1,2-{(5,6-dihydro-5,11-diketo-11H-indeno[1,2-c]isoquinoline)-(6-propyl-tert-BOCamino)}ethane]",0
6,"CC(C)(C)OC(=O)N(CCCCN(CCCn1c2c(c3ccccc3c1=O)C(=O)c1ccccc1-2)C(=O)OC(C)(C)C)CCCn1c2c(c3ccccc3c1=O)C(=O)c1ccccc1-2 [Compound 13d, Bis-1,4-{(5,6-dihydro-5,11-diketo-11H-indeno[1,2-c]isoquinoline)-(6-propyl-tert-BOCamino)}butane]",++
7,"O=C(O)C(F)(F)F.O=C1c2ccccc2-c2c1c1ccccc1c(=O)n2CCCNCCn1c2c(c3ccccc3c1=O)C(=O)c1ccccc1-2 [Compound 14a, Bis{(5,6-dihydro-5,11-diketo-11H-indeno[1,2-c]isoquinoline)}-(6-ethyl,6′-propyl)ammonium Trifluoroacetate]",+
8,"Cl.O=C1c2ccccc2-c2c1c1ccccc1c(=O)n2CCCCNCCCn1c2c(c3ccccc3c1=O)C(=O)c1ccccc1-2 [Compound 14b, Bis{(5,6-dihydro-5,11-diketo-11H-indeno[1,2-c]isoquinoline)}-(6-propyl,6′-butyl)amine Hydrochloride]",+
9,"O=C(O)C(F)(F)F.O=C(O)C(F)(F)F.O=C1c2ccccc2-c2c1c1ccccc1c(=O)n2CCNCCNCCn1c2c(c3ccccc3c1=O)C(=O)c1ccccc1-2 [Compound 14c, Bis-1,2-{(5,6-dihydro-5,11-diketo-11H-indeno[1,2-c]isoquinoline)-6-ethylamino}ethane Bis(trifluoroacetate)]",+
10,"O=C(O)C(F)(F)F.O=C(O)C(F)(F)F.O=C1c2ccccc2-c2c1c1ccccc1c(=O)n2CCCN1CCN(CCCn2c3c(c4ccccc4c2=O)C(=O)c2ccccc2-3)CC1 [Compound 14f, Bis-1,4-{(5,6-dihydro-5,11-diketo-11H-indeno[1,2-c]isoquinoline)-6-propyl}piperazine Bis(trifluoroacetate)]",0
11,"O=C(O)C(F)(F)F.O=C(O)C(F)(F)F.O=C1c2ccccc2-c2c1c1ccccc1c(=O)n2CCCNCCCCNCCCn1c2c(c3ccccc3c1=O)C(=O)c1ccccc1-2 [Compound 14h, Bis-1,4-{(5,6-dihydro-5,11-diketo-11H-indeno[1,2-c]isoquinoline)-6-propylamino}butane Bis(trifluoroacetate)]",+++
12,"O=C(O)C(F)(F)F.O=C(O)C(F)(F)F.O=C(O)C(F)(F)F.O=C1c2ccccc2-c2c1c1ccccc1c(=O)n2CCNCCNCCNCCn1c2c(c3ccccc3c1=O)C(=O)c1ccccc1-2 [Compound 14i, Bis{(5,6-dihydro-5,11-diketo-11H-indeno[1,2-c]isoquinoline)-6-ethylamino-ethyl}amine Tris(trifluoroacetate)]",+++
13,"COc1cc2c3c(n(CCNCCCNCCn4c5c(c6cc(OC)c(OC)cc6c4=O)C(=O)c4ccccc4-5)c(=O)c2cc1OC)-c1ccccc1C3=O.O=C(O)C(F)(F)F.O=C(O)C(F)(F)F [Compound 14k, Bis-1,3-{(5,6-dihydro-5,11-diketo-2,3-dimethoxy-11H-indeno[1,2-c]isoquinoline)-6-ethylamino}propane Bis{trifluoroacetate)]",++
14,"COc1cc2c3c(n(CCCNCCCNCCCn4c5c(c6cc(OC)c(OC)cc6c4=O)C(=O)c4ccccc4-5)c(=O)c2cc1OC)-c1ccccc1C3=O.O=C(O)C(F)(F)F.O=C(O)C(F)(F)F [Compound 14l, Bis-1,3-{(5,6-dihydro-5,11-diketo-2,3-dimethoxy-11H-indeno[1,2-c]isoquinoline)-6-propylamino}propane Bis{trifluoroacetate)]",++
15,"O=C(O)C(F)(F)F.O=C(O)C(F)(F)F.O=C1c2ccccc2-c2c1c1ccc([N+](=O)[O-])cc1c(=O)n2CCNCCCNCCn1c2c(c3ccc([N+](=O)[O-])cc3c1=O)C(=O)c1ccccc1-2 [Compound 14m, Bis-1,3-{(5,6-dihydro-5,11-diketo-3-nitro-11H-indeno[1,2-c]isoquinoline)-6-ethylamino}propane Bis{trifluoroacetate)]",++
16,"O=C(O)C(F)(F)F.O=C(O)C(F)(F)F.O=C1c2ccccc2-c2c1c1ccc([N+](=O)[O-])cc1c(=O)n2CCCNCCCNCCCn1c2c(c3ccc([N+](=O)[O-])cc3c1=O)C(=O)c1ccccc1-2 [Compound 14n, Bis-1,3-{(5,6-dihydro-5,1-diketo-3-nitro-11H-indeno[1,2-c]isoquinoline)-6-propylamino}propane Bis{trifluoroacetate)]",0
17,"COc1cc2c3c(n(CCCN(CCCN(CCCn4c5c(c6ccccc6c4=O)C(=O)c4ccccc4-5)C(=O)OC(C)(C)C)C(=O)OC(C)(C)C)c(=O)c2cc1OC)-c1cc2c(cc1C3=O)OCO2 [Compound 16a, 1,3-{6-(3-tert-Butyloxycarbonylamino-1-propyl)-5,6-dihydro-2,3-dimethoxy-8,9-methylenedioxy-5,11-dioxo-11H-indeno[1,2-c]isoquinoline}-{5′,6′-dihydro-6′-[(3′-tert-butyloxycarbonylamino)-1′-propyl]-5′,11′-dioxo-11′H-indeno[1,2-c]isoquinoline}propane]",0
18,"COc1cc2c3c(n(CCCNCCCNCCCn4c5c(c6ccccc6c4=O)C(=O)c4ccccc4-5)c(=O)c2cc1OC)-c1cc2c(cc1C3=O)OCO2.O=C(O)C(F)(F)F.O=C(O)C(F)(F)F [Compound 17a, 1,3-{6-(3-Amino-1-propyl)-5,6-dihydro-2,3-dimethoxy-8,9-methylenedioxy-5,1-dioxo-11H-indeno[1,2-c]isoquinoline}-{5′,6′-Dihydro-6′-(3′-amino-1′-propyl)-5′,11′-dioxo-11′H-indeno[1,2-c]isoquinoline}propane Bis(trifluoroacetate)]",+
19,"NCCCn1c2c(c3ccccc3c1=O)C(=O)c1ccccc1-2 [Compound S-3, 5,6-dihyro-6-(3-amino-1-propyl)-5,11-dioxo-11H-indeno[1,2,c]isoquinoline, reference compound]",+++
20,"Bis-1,2-{(5,6-dihydro-5,11-diketo-11H-indeno[1,2-c]isoquinoline)-6-ethylamino-ethylamino}ethane Tetra(trifluoroacetate) [Compound 14j]",++

# Molecular target: T2, Human recombinant Top1 (Homo sapiens, UniProt P11387)
# T2 construct: made in house
# T2 sequence (P11387 1-765): T1 sequence (P11387 1-765)
# Assay: Topoisomerase 1-mediated DNA cleavage reactions (B), 117-bp DNA oligonucleotide
# Format: biochemical
# Settings: Table 7; rubric based on the activity of camptothecin (FIG. 6)
row,Compound,Top 1 Cleavage
1,Cl.NCCCn1c2c(c3ccc([N+](=O)[O-])cc3c1=O)C(=O)c1cc3c(cc1-2)OCO3 [Compound 35],++++
2,O=C1c2cc3c(cc2-c2c1c1ccc(F)cc1c(=O)n2CCCn1ccnc1)OCO3 [Compound 36],"+++ (+++, 75-95% activity)"
3,O=C1c2cc3c(cc2-c2c1c1ccc(F)cc1c(=O)n2CCCN1CCOCC1)OCO3 [Compound 37],"+ (+, 20-50% activity)"
4,O=C1c2cc3c(cc2-c2c1c1ccc(F)cc1c(=O)n2CCCNCCO)OCO3 [Compound 38],"++ (++, 50-75% activity)"
5,O=C1c2cc3c(cc2-c2c1c1ccc(Cl)cc1c(=O)n2CCCn1ccnc1)OCO3 [Compound 39],"++ (++, 50-75% activity)"
6,O=C1c2cc3c(cc2-c2c1c1ccc(Cl)cc1c(=O)n2CCCN1CCOCC1)OCO3 [Compound 40],"+ (+, 20-50% activity)"
7,O=C1c2cc3c(cc2-c2c1c1ccc(Cl)cc1c(=O)n2CCCNCCO)OCO3 [Compound 41],"+++ (+++, 75-95% activity)"
